Consider 16 molecules from patent publication US20130324532A1 (priority 2011, published 2013).

Chains of the proteins cited; added tags and fusions are not shown.
UniProt Q05397, whole entry: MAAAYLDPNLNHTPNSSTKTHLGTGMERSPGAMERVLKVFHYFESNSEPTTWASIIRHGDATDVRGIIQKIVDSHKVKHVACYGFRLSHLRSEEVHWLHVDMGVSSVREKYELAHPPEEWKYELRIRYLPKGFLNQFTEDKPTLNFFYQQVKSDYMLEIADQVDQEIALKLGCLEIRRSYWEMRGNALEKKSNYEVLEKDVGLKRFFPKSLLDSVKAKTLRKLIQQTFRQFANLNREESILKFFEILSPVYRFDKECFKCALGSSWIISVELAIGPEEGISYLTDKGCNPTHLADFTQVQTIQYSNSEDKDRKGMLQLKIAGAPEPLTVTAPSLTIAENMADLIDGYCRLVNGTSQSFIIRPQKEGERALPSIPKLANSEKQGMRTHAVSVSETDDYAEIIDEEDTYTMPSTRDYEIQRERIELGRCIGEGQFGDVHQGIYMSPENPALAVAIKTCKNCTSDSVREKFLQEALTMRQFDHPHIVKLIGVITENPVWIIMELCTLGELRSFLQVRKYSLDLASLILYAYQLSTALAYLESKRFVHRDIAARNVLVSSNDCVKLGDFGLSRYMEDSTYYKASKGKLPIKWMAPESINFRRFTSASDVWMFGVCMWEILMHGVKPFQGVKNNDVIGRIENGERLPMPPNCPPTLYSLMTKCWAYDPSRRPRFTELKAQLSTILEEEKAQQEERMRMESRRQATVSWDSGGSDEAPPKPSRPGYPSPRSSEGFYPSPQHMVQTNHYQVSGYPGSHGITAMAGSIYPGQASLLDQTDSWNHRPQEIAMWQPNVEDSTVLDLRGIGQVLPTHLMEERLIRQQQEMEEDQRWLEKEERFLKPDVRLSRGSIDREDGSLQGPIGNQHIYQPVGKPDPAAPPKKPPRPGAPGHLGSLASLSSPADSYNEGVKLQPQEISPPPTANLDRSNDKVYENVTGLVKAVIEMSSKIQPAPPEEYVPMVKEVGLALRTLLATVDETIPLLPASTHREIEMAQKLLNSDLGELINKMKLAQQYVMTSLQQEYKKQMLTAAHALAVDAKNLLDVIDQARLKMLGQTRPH

For this assay, the target named is T1, phosphorylation of Y397-FAK in MDA-231-LNA cells (Homo sapiens, UniProt Q05397).
T1 construct: endogenous in cells; host or cells: MDA-231-LNA cells
Put plainly: cell-based.
In turn, `NC(=O)Cc1ccccc1CCc1nc(Nc2ccc(N3CCNCC3)cc2)ncc1C(F)(F)F` [Compound 1, 2-(2-(2-(2-((4-(piperazin-1-yl)phenyl)amino)-5-(trifluoromethyl)pyrimidin-4-yl)ethyl)phenyl)acetamide] displayed a concentration for half-maximal inhibition (IC50) of 59 nM.
The same measure for `CN1CCN(c2ccc(Nc3ncc(C(F)(F)F)c(CCc4cccc(C(N)=O)c4)n3)cc2)CC1` [Compound 2, 3-(2-(2-((4-(4-Methylpiperazin-1-yl)phenyl)amino)-5-(trifluoromethyl)pyrimidin-4-yl)ethyl)benzamide]: 58 nM; for `CN1CCN(c2ccc(Nc3ncc(C(F)(F)F)c(CCc4ccccc4CC(N)=O)n3)cc2)CC1` [Compound 3]: 27 nM.
The value for `NC(=O)Cc1ccccc1CCc1nc(Nc2ccc(C3CCCNC3)cc2)ncc1C(F)(F)F` (stereo not shown) [Compound 4, 2-(2-(2-(2-((4-(Piperidin-3-yl)phenyl)amino)-5-(trifluoromethyl)pyrimidin-4-yl)ethyl)phenyl)acetamide] was 140 nM.
The value for `CN1CCN(c2cccc(Nc3ncc(C(F)(F)F)c(CCc4cccc(C(N)=O)c4)n3)c2)CC1` [Compound 6, 3-(2-(2-((3-(4-Methylpiperazin-1-yl)phenyl)amino)-5-(trifluoromethyl)pyrimidin-4-yl)ethyl)benzamide] was 440 nM.
`NC(=O)Cc1ccccc1CCc1nc(Nc2ccc(C3CCCCN3)cc2)ncc1C(F)(F)F` (stereo not shown) [Compound 8, 2-(2-(2-(2-((4-(Piperidin-2-yl)phenyl)amino)-5-(trifluoromethyl)pyrimidin-4-yl)ethyl)phenyl)acetamide] returned a half-maximal inhibitory concentration (IC50) of 124 nM.
The value for `CN1CCCCC1c1ccc(Nc2ncc(C(F)(F)F)c(CCc3ccccc3CC(N)=O)n2)cc1` (stereo not shown) [Compound 9] was 214 nM; that for `NC(=O)Cc1ccccc1CCc1nc(Nc2ccc(C3CCNCC3)cc2)ncc1C(F)(F)F` [Compound 11, 2-(2-(2-(2-((4-(Piperidin-4-yl)phenyl)amino)-5-(trifluoromethyl)pyrimidin-4-yl)ethyl)phenyl)acetamide] was 116 nM.
The same measure for `CC(C(N)=O)c1ccccc1CCc1nc(Nc2ccc(C3CCNCC3)cc2)ncc1C(F)(F)F` (stereo not shown) [Compound 12, 2-(2-(2-(2-((4-(Piperidin-4-yl)phenyl)amino)-5-(trifluoromethyl)pyrimidin-4-yl)ethyl)phenyl)propanamide]: 522 nM; for `CNC(=O)Cc1ccccc1CCc1nc(Nc2ccc(N3CCNCC3)cc2)ncc1C(F)(F)F` [Compound 14, N-Methyl-2-(2-(2-(2-((4-(piperazin-1-yl)phenyl)amino)-5-(trifluoromethyl)pyrimidin-4-yl)ethyl)phenyl)acetamide]: 572 nM; for `CN1CCN(c2cccc(Nc3ncc(C(F)(F)F)c(CCc4ccccc4CC(N)=O)n3)c2)CC1` [Compound 17, 2-(2-(2-(2-((3-(4-Methylpiperazin-1-yl)phenyl)amino)-5-(trifluoromethyl)pyrimidin-4-yl)ethyl)phenyl)acetamide]: 60 nM.
The value for `CNC(=O)Cc1ccccc1CCc1nc(Nc2cccc(N3CCN(C)CC3)c2)ncc1C(F)(F)F` [Compound 18] was 880 nM; that for `NC(=O)Cc1ccccc1CCc1nc(Nc2ccc(N3CCC(N)CC3)cc2)ncc1C(F)(F)F` [Compound 20, 2-(2-(2-(2-((4-(4-Aminopiperidin-1-yl)phenyl)amino)-5-(trifluoromethyl)pyrimidin-4-yl)ethyl)phenyl)acetamide] was 13 nM.
In the case of `NC(=O)Cc1ccccc1CCc1nc(Nc2ccc3c(c2)CCNC3)ncc1C(F)(F)F` [Compound 21, 2-(2-(2-(2-((1,2,3,4-Tetrahydroisoquinolin-6-yl)amino)-5-(trifluoromethyl)pyrimidin-4-yl)ethyl)phenyl)acetamide], the IC50 amounted to 1 nM.
The value for `NC(=O)Cc1ccccc1CCc1nc(Nc2ccc(C3CNCCO3)cc2)ncc1C(F)(F)F` (stereo not shown) [Compound 22, 2-(2-(2-(2-((4-(morpholin-2-yl)phenyl)amino)-5-(trifluoromethyl)pyrimidin-4-yl)ethyl)phenyl)acetamide] was 23 nM; that for `CCN1CCC(c2ccc(Nc3ncc(C(F)(F)F)c(CCc4ccccc4CC(N)=O)n3)cc2)CC1` [Compound 31, 2-(2-(2-(2-((4-(1-Ethylpiperidin-4-yl)phenyl)amino)-5-(trifluoromethyl)pyrimidin-4-yl)ethyl)phenyl)acetamide] was 39 nM.

The term IC50 denotes the concentration needed to halve the response being measured.
